Here are results for 1 molecule from PMC7288052 (Molecules, 2020).

Protein sequences, listed by entry. Tags and fused reporters are not part of them.
UniProt P33535, whole entry: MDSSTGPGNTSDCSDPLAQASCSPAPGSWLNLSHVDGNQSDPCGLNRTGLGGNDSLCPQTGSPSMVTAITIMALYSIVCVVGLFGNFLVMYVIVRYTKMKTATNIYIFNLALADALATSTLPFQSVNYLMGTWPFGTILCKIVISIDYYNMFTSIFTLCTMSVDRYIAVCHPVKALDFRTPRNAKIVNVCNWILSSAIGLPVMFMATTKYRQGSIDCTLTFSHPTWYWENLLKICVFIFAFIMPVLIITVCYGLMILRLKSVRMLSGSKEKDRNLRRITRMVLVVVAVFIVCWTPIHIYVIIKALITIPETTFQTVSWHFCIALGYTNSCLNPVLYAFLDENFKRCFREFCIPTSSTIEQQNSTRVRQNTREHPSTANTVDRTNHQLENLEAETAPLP

As usually defined, the IC50 is the point on the concentration scale where inhibition reaches its midpoint. Read a high IC50 as lower potency.

The structures appear in SMILES notation.

The target in the test is T1, μ-opioid receptor (μOR) (Rattus norvegicus, UniProt P33535).
T1 construct: from tissue; host or cells: rat brain homogenate (membrane fractions)
The test can be described thus: competitive radioligand displacement assay, μOR, [3H]DAMGO, rat brain homogenate membranes. The test is classed as binding. The method, then: The determinations were performed by a competitive radioligand displacement assay with selective radioligands.
Membrane fractions of rat brain Homogenate were incubated at 25 °C for 60 mins in the presence of radioligands (0.5 nM) specific for each receptor (μOR: [^3H]DAMGO and δOR: [^3H]DELT II, obtained as a generous gift from Prof. Géza Tóth) and the increasing concentrations of the tested compounds (10^−11 up to 10^−5 M, each concentration in duplicate). For measuring non-specific binding, 10 μM naloxone was used as the competitor. The assay buffer contained 50mM Tris-HCl (pH 7.4), bovine serum albumin (0.1 mg/mL), bacitracin (30 μg/mL), bestatin (30 μM), captopril (10 μM), and phenylmethylsulfonyl fluoride (0.1 mM) in the total reaction volume of 1 mL. After the incubation, the binding reactions were terminated by rapid filtration with M-24 Cell Harvester (Brandel/USA) through GF/B Whatman glass fibre strips. The filters were pre-soaked with 0.5% PEI before harvesting in order to minimize non-specific binding. Filter discs were placed separately in 24-well plates and immersed with the Optiphase Supermix scintillation cocktail (Perkin Elmer, Waltham, MA, USA). Radioactivity was measured using a MicroBeta LS Trilux scintillation counter (PerkinElmer, Waltham, MA, USA).
(In a radioligand displacement assay an active substance lowers the binding of a labelled ligand.)

As for `C[C@@H](NC(=O)[C@@H](N)Cc1ccc(O)cc1)C(=O)N[C@@H](Cc1ccccc1)C(=O)N[C@@H](Cc1ccccc1)C(N)=O` [compound 1, H-Tyr-D-Ala-Phe-Phe-NH2, reference compound], the half-maximal inhibitory concentration (IC50) came out at 5.1 ± 3.5 nM.
